Laboratory results reported in article PMC10920890, “Biosensor and machine learning-aided engineering of an amaryllidaceae enzyme” (Nature Communications, 2024).

Test system: Oc1ccc(CCNCc2ccc(O)c(O)c2)cc1
Experiment: purified protein
Settings: 500 µM SAM, 2 mM CaCl2, PBS pH 7.5, 37 °C
[1] = fit with substrate inhibition, limits only
[2] = Km calculated as kcat/(kcat/Km)

Substance	kcat [1]	kcat/Km [1]	Km [2]	kcat [2]	kcat/Km [2]
Nb4OMT (norbelladine 4'-O-methyltransferase) (Narcissus aff. pseudonarcissus MK-2014; A53M/E36P/G40E)	> 2 s⁻¹	> 23300 M⁻¹ s⁻¹			
Nb4OMT (norbelladine 4'-O-methyltransferase) (Narcissus aff. pseudonarcissus MK-2014; A53M)	> 3.17 s⁻¹	> 35000 M⁻¹ s⁻¹			
Nb4OMT (norbelladine 4'-O-methyltransferase) (Narcissus aff. pseudonarcissus MK-2014)			62 (37–104) μM	1.22 s⁻¹	19700 M⁻¹ s⁻¹
